# Yeast mating assay B: variants of the scFv Ab-14

The measurements come from Li et al. 2023 (doi:10.1038/s41467-023-39022-2) through the FLAb antibody collection.

All variants were tested on one target, the spike HR2 peptide PDVDLGDISGINAS (SARS-CoV-2).

Each scFv is VH, a (GGGGS)3 linker, VL, as in the parent Ab-14, and differs from it in the CDRs of the light chain only.
VH: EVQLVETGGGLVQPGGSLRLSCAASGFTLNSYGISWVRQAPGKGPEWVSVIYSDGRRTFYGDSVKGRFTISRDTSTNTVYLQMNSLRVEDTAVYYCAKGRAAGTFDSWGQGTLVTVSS
VL: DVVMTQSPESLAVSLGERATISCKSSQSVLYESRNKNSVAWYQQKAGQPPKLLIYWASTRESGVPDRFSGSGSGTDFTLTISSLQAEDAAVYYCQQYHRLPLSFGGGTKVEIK

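The starting antibody came from a phage panning campaign against this peptide. The variants were designed computationally from a first round of random CDR variants and then made and measured. Group labels follow the data file (Ctrl: baseline library sampled from a position-specific scoring matrix, with some repeated check sequences; Rand: our label for a block that the file lists under HC and that is probably the random mutants of the ten best first-round binders; En: ensemble of fine-tuned language models; GP: Gaussian process model; HC: hill climbing; Gen: genetic algorithm; Gibbs: Gibbs sampling; a sequence that several methods proposed may carry one label only). AlphaSeq pools MATa yeast showing the antibodies with MATalpha yeast showing the peptide. Pairs that bind mate more often; barcode pairs of the diploids are counted by sequencing. Each replicate has its own calibration line, from reference interactions of the BCL2 family. There are six technical replicates.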

Each variant is given by its three light chain CDRs, as the data file delimits them; those of the parent are KSSQSVLYESRNKNSVA, WASTRES, QQYHRLPLS.
Variants here have more than six changes.
Each Kd is an estimate from the mating assay, the geometric mean of the replicates in which the pair was seen; lower is stronger.
Where no diploid with the target was found in any replicate, the entry reads "nd": below detection, most likely a poor binder, though not proof of it.
In the paper, a design with two or fewer of six values counts as a poor binder.
Empty control strains, which show no peptide, gave a signal in 4% of pairings with all light chain designs; the median was 430 nM and 95% of these signals were weaker than 38 nM. No background was subtracted. Also given: how often the same scFv was detected with the empty control strains.
Of ten entries with the parent sequence, four were seen in most replicates (averages 2.2 nM to 240 nM), three in one and three in none, so single entries are noisy.
The range of this assay differs from that of the first round, and the authors advise against merging the two.

For KVSMLHDYESRNKNSVA / EASTREQ / QDYHRLPLS [GP_Gibbs], the assay gave 780 pM (6 of 6 replicates; controls 1 of 18).
For TISELYNQATGMRDNVA / NNQTRED / QQYHRLPLS [En_Gen], the assay gave 33 nM (3 of 6 replicates; controls 1 of 18).
For QFDLHHKQIETIESAVA / ETSVRAA / QSYDRLPLS [En_Gibbs], the assay gave 4.6 nM (6 of 6 replicates; controls 3 of 18).
For ALQMERLGQKQKQNNIA / NQDMRTA / QQYYMLPLV [En_Gibbs], the assay gave 1.1 nM (6 of 6 replicates; controls 0 of 18).
For KLGQSAAMTSRMKNNVA / DLNERER / QQYHRLPLS [En_HC], the assay gave 2.1 nM (6 of 6 replicates; controls 2 of 18).
For KIELDLTRYNAGGANIA / HEVMRAQ / QQYSHLPLI [En_Gibbs], the assay gave 2.3 nM (6 of 6 replicates; controls 1 of 18).
For HISPMQAYAYEAKNSVA / DTETKLN / QQYIRLPLT [En_Gibbs], the assay gave 740 pM (6 of 6 replicates; controls 0 of 18).
For KFSGEMLYESRNKNSVA / HASERES / QDYHRLPLQ [GP_Gibbs], the assay gave 1.5 nM (6 of 6 replicates; controls 2 of 18).
For KMSQSVLMGGRNDNSVA / EASTRCD / QQYHRLPLS [GP_Gibbs], the assay gave 1.2 nM (6 of 6 replicates; controls 1 of 18).
For HIGLSTMLEEIVRNSVA / NNSTRED / QQYDRLPLS [En_Gen], the assay gave 120 nM (5 of 6 replicates; controls 0 of 18).
For ISVQSWLYESRNKNSVA / GASTRWS / QQYHGLPLT [Rand], the assay gave 59 nM (2 of 6 replicates; controls 0 of 18).
For KLFQSELYESRHANNVA / NASQRES / QQYHRLPLS [GP_Gibbs], the assay gave 650 pM (6 of 6 replicates; controls 1 of 18).
For SMQVYTENFMERGQNIA / DVSAKTV / QQYHRLPLA [En_Gibbs], the assay gave 1.4 nM (6 of 6 replicates; controls 0 of 18).
For QISMNLEIYDQEQWAVA / MGEMRTE / QQYHKLPLS [En_Gibbs], the assay gave 140 nM (5 of 6 replicates; controls 0 of 18).
For KLEQSSPYESRNKNSVA / NASLRCS / QQYHRLPLS [GP_Gibbs], the assay gave 860 pM (6 of 6 replicates; controls 0 of 18).
For TISSIMNHLTRNSNNVA / NMDMREE / QQYDRLPLS [En_Gen], the assay gave 640 pM (6 of 6 replicates; controls 0 of 18).
For KLSGLMRVESKNKSNIA / EMNTRGA / QQYDRLPLS [En_Gen], the assay gave 5.0 nM (6 of 6 replicates; controls 2 of 18).
For QLYESNYELSGKTHSVA / DNSTRGE / QQYFRLPLD [En_Gen], the assay gave 160 nM (6 of 6 replicates; controls 1 of 18).
For KLTQVTHSEHRNKNSIA / EMVTREK / QQYDRLPLS [En_HC], the assay gave 11 nM (6 of 6 replicates; controls 0 of 18).
For KISMLYRYESQEKNSIA / EMSTREE / QSYHRLPLS [En_HC], the assay gave 27 nM (1 of 6 replicates; controls 1 of 18).
For KVSQSMLIWSRNSNSVA / NASTREH / QQYHRLPLS [GP_Gibbs], the assay gave 2.9 nM (6 of 6 replicates; controls 1 of 18).
For MISQIYNMGTFAINSVA / QASIRNA / QQYDRLPLT [En_Gen], the assay gave nd (0 of 6 replicates; controls 0 of 18).
For RIQMQVTWPGNARQNVA / EIQTAID / QQYAHLPLS [En_Gibbs], the assay gave 180 nM (4 of 6 replicates; controls 1 of 18).
For KLQQQEQYESRNKNSVA / NASDRQS / QQYHRLPLS [GP_Gibbs], the assay gave 2.9 nM (6 of 6 replicates; controls 1 of 18).
For MVSMNIYGEYRLRDNVA / HASMRED / QCYDRLPLS [En_Gen], the assay gave nd (0 of 6 replicates; controls 0 of 18).
For MISQVMNTLTRNTNNVA / DLTNRED / QQYFRLPLS [En_Gen], the assay gave 4.1 nM (6 of 6 replicates; controls 0 of 18).
For KLRQMTLTEGYFKNSVA / QASTREN / QSYHRLPLS [En_HC], the assay gave 4.2 nM (6 of 6 replicates; controls 3 of 18).
For NLQLQPRDGAQAQNSIA / DVSEADM / QQYARLPLT [En_Gibbs], the assay gave 4.2 nM (6 of 6 replicates; controls 0 of 18).
For KSNQSVLYESTNQNSVA / SASTREM / QQPHRMPLS [Ctrl], the assay gave 120 nM (1 of 6 replicates; controls 0 of 18).
For KLMMFMQGIGCMKNNIA / NLKEVAT / QQYAQLPLV [En_Gibbs], the assay gave 330 nM (1 of 6 replicates; controls 1 of 18).
For KLSQSWLYEERNKNNVA / SASQREM / QQYHRLPLS [GP_Gibbs], the assay gave 380 pM (6 of 6 replicates; controls 2 of 18).
For QLSMITGHQSMIKNNVA / EMETREN / QQYDRLPLA [En_Gen], the assay gave 2.8 nM (6 of 6 replicates; controls 0 of 18).
For HMSQSWLMESRNSNSVA / DASTRLS / QQYHRLPLS [GP_Gibbs], the assay gave 940 pM (6 of 6 replicates; controls 1 of 18).
For MMSNVTGMESMSRNNVA / QTSTREQ / QQYDRLPLI [En_Gen], the assay gave 45 nM (6 of 6 replicates; controls 0 of 18).
For NVRLNEGEIDMHWYNIA / SVDIRAD / QQYSRLPLF [En_Gibbs], the assay gave 1.2 nM (6 of 6 replicates; controls 3 of 18).
For KLSATYRYESQNKNSIA / EMTTREE / QCYHRLPLS [En_HC], the assay gave 30 nM (6 of 6 replicates; controls 0 of 18).
For TLYGLSVSMSKNTNNVA / EMTTRED / QQYDRLPLI [En_Gen], the assay gave 34 nM (6 of 6 replicates; controls 0 of 18).
For FSLGSELYESRNFNSVA / HASTRED / QQYHRLPLS [GP_HC], the assay gave 7.0 nM (6 of 6 replicates; controls 1 of 18).
For KLSMITGHMSVSKNNVA / EMVTRVN / QQYARLPLS [En_Gen], the assay gave 6.7 nM (6 of 6 replicates; controls 0 of 18).
For KLSGSMLYEQRMKNSVA / QASHRMS / QQYHRLPLS [GP_Gibbs], the assay gave 5.7 nM (6 of 6 replicates; controls 0 of 18).
For KMAQENPYESRNSNSVA / NASTREM / QQYHRLPLS [GP_Gibbs], the assay gave 790 pM (6 of 6 replicates; controls 1 of 18).
For NIYQAMHTLSQMKDNVA / DVNERGD / QQYYRLPLS [En_Gen], the assay gave 770 pM (6 of 6 replicates; controls 0 of 18).
For KLYYHEVGLVNGQNSIA / ETDQLTF / QQYSHLPLS [En_Gibbs], the assay gave 31 nM (6 of 6 replicates; controls 0 of 18).

Repeated from above, the 6 best binders with a signal in all replicates:

CDR-L1,CDR-L2,CDR-L3,group,Kd (apparent),detected,empty controls
KLSQSWLYEERNKNNVA,SASQREM,QQYHRLPLS,GP_Gibbs,380 pM,6 of 6,2 of 18
TISSIMNHLTRNSNNVA,NMDMREE,QQYDRLPLS,En_Gen,640 pM,6 of 6,0 of 18
KLFQSELYESRHANNVA,NASQRES,QQYHRLPLS,GP_Gibbs,650 pM,6 of 6,1 of 18
HISPMQAYAYEAKNSVA,DTETKLN,QQYIRLPLT,En_Gibbs,740 pM,6 of 6,0 of 18
NIYQAMHTLSQMKDNVA,DVNERGD,QQYYRLPLS,En_Gen,770 pM,6 of 6,0 of 18
KVSMLHDYESRNKNSVA,EASTREQ,QDYHRLPLS,GP_Gibbs,780 pM,6 of 6,1 of 18